IC50 data for 4 molecules are collected here from patent publication US9012651B2, “TRPV3 modulators” (AbbVie Inc., priority 2011, dated 2015).

The chains behind the UniProt entries cited, without tags or fusion partners. Where a name states a change or a piece, a line headed by the entry shows the natural chain unless it says otherwise.
UniProt Q8NET8: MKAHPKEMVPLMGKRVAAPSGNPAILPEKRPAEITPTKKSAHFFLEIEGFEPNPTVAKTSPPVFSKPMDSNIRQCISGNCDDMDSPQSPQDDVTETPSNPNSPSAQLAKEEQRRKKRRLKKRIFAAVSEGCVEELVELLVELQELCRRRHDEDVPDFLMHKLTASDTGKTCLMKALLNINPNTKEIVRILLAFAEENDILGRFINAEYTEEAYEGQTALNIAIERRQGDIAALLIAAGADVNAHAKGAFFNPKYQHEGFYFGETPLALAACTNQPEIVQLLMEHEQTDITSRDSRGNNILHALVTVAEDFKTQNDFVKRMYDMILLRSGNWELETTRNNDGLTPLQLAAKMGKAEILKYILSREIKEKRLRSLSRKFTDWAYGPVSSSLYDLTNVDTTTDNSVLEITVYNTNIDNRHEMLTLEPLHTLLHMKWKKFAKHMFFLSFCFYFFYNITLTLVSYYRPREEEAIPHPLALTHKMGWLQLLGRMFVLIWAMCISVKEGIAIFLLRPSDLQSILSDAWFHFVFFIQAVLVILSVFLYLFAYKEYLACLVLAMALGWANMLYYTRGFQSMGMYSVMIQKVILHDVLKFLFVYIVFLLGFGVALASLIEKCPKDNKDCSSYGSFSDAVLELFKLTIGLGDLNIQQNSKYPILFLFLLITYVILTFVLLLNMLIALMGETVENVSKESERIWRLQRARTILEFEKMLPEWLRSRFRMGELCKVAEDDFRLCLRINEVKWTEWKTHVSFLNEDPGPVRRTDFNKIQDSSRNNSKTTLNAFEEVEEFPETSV

The target of the assay is human TRPV3 receptors (Homo sapiens (Human), UniProt Q8NET8). The assay can be described thus: Calcium flux assay (FLIPR TETRA), inhibition of the 2-APB response. Format: cell-based. As to conditions: recombinant HEK293 cells stably expressing TRPV3, Calcium-4 dye, 2-APB at its EC80. The method, then: (i) In Vitro Methods-Calcium Flux Assays:
Experiments were conducted using the FLIPR^TETRA®. On the day prior to the experiment, recombinant HEK293 cells that stably express human and mouse TRPV3 were removed from tissue culture flasks and plated in growth medium at 20,000 cells/well into black-walled clear-bottom 384-well Biocoat™ poly-D-lysine assay plates (BD Biosciences, Bedford, Mass.) using a Multidrop® dispenser (ThermoScientific, Waltham, Mass.). […] Cells were incubated for 90-120 minutes in the dark. Compounds were dissolved in DMSO to prepare a 10 mM stock solution. The intensity of the fluorescence was captured and digitally transferred to an interfaced PC. The peak increase in fluorescence over baseline (relative fluorescence units) was calculated and expressed as the percentage of the maximal 2-APB (2-aminoethoxyldiphenyl borate) response (in the absence of compound).
In the case of `O[C@H]1CCCC[C@H]1NCc1cccc(-c2ccc(C(F)(F)F)cc2)n1` [Example 7, (1S,2R)-2-[({6-[4-(trifluoromethyl)phenyl]pyridin-2-yl}methyl)amino]cyclohexanol], the IC50 (usually the concentration needed to halve the response being measured) amounted to 3250 nM.

On to `CC(C)[C@H](CO)NCc1nc(-c2ccc3scnc3c2)ccc1F` [Example 234, (2R)-2-({[6-[1,3-benzothiazol-5-yl)-3-fluoropyridin-2-yl]methyl}amino)-3-methylbutan-1-ol], for which the half-inhibitory concentration (IC50) came to 1520 nM.

As for `CC(C)[C@H](CO)NCc1nc(-c2ccc(Cl)s2)ccc1F` [Example 242, (2R)-2-({[6-[5-chlorothiophen-2-yl)-3-fluoropyridin-2-yl]methyl}amino)-3-methylbutan-1-ol], the IC50 was found to be 410 nM.

As to `O[C@@H]1CCCC[C@@H]1NCc1cccc(-c2ccc(C(F)(F)F)cc2)n1` [Example 4, (1R,2S)-2-[({6-[4-(trifluoromethyl)phenyl]pyridin-2-yl}methyl)amino]cyclohexanol], the IC50 turned out to be 3000 nM.
